“And” between values parts separate entries of the source, which are not always exact repeats. Equal values may be shown once. This is a selection; strong and weak results do not stand in their true shares. Some results for these compounds are left out of this collection, so the calls shown say nothing about other tests. The source made the active and inactive calls. Calls come from the whole dose curve; as a rule, active = well fitted activation curve with a large enough effect; inconclusive = small, poorly fitted or top-dose-only effect; inactive = no such curve, though single readings can be large or run the other way.

Growth rescue data for 36 compounds are collected here from PubChem BioAssay AID1347071 (National Center for Advancing Translational Sciences (NCATS), 2019).

The test in a line: qHTS for compounds that reverse cellular toxicity of Amyloid beta (A-beta) peptide in yeast: Primary Screen. Note: nearly all actives have a fitted effect of over 55% in size. To be noted: yeast expressing A-beta42, growth rescue, OD600, 48 h, 0% DMSO, 100% iron-clioquinol control; at 46.1 µM (top of the series). From the text: The A-beta peptide is produced by the processing of the amyloid precursor protein (APP) by two proteases, beta and gamma secretases. […] A-beta42 is regarded as the most amyloidogenic form due to its hydrophobicity; however, precisely how A-beta42 induces neurotoxicity is unclear. To understand further this biology and its potential therapeutic implications for human neurodegenerative disease, a quantitative high-throughput screen for compounds that reverse the cellular toxicity of the A-beta peptide was developed. A yeast based screen was used because it recapitulates the salient feature of protein mis-folding disorder accurately. This cell-based phenotypic screen provides a significant, unbiased advantage by letting the compounds and models inform us which proteins or pathways are most relevant. The ideal chemical candidates would therefore have activity in both our primary yeast and secondary neuronal toxicity assays, as well as in mouse models. They will be valuable tools for dissecting diverse protein homeostasis pathologies and could potentially become the focus for future pre-clinical development. For this luminescence assay, inhibition of A-beta rescues the toxic effect in the yeast cell, resulting in increase of signals and the desired phenotype of "Activator". This screen is run against the Molecular Libraries Small Molecule Repository (MLSMR) and the NCGC Sytravon Library Collection.
NIH Chemical Genomics Center [NCGC]
NIH Molecular Libraries Probe Centers Network [MLPCN]
Assay Submitter (PI): Susan Lindquist, Whitehead Institute, Massachusetts Institute of Technology
[1] Vassar R,et al (1999). Beta-secretase cleavage of Alzheimer's amyloid precursor protein by the transmembrane aspartic protease BACE. Science. 286: 735-741.
[2] Yan R, et al (1999). Membrane-anchored aspartyl protease with Alzheimer's disease beta-secretase activity. Nature. 402: 533-536.
Two and a half microliter / well of yeast growth medium were dispensed in a 1536 assay plate. Compounds were pinned using the Kalypsys robotic system followed by addition of 2.5 uL / well yeast solution. The assay plates were incubated at 30 C. After 48 hr, the absorbance signal at 600 nm was obtained using the PerkinElmer ViewLux plate reader to assess yeast growth. The data was normalized to the positive control of an equimolar mixture of ferric chloride (FeCl3) and clioquinol and to the negative control DMSO.
On to `COc1cc(C(=O)NCC2(N(C)C)CCCCC2)c([N+](=O)[O-])cc1OC`, for which the growth rescue was inactive: -2.23%.

Regarding `CN(C)C1(CNC(=O)c2ccc(Br)cc2)CCCCC1`, the growth rescue was inactive: -13.7%.

In the case of `O=C(NCC1(N2CCCCC2)CCCCC1)c1cccc(Cl)c1`, the growth rescue was inactive: -2.93%.

Consider `COc1ccc(Cl)cc1C(=O)NCC1(N(C)C)CCCCC1`, for which the growth rescue was inactive: -10.5%.

For `COc1cccc(C(=O)NCC2(N3CCCCC3)CCCCC2)c1`, the growth rescue was inactive: -19.7%.

`COc1ccc(C(=O)NCC2(N(C)C)CCCCC2)cc1Cl`: the growth rescue was inactive: -10%.

Consider `CC(C)COc1ccc(C(=O)NCC2(N(C)C)CCCCC2)cc1`, for which the growth rescue is inactive: -9.87%.

As for `COc1cccc(C(=O)NCC2(N3CCOCC3)CCCCC2)c1`, the growth rescue is inactive: -14.4%.

For `O=C(OC1CN2CCC1CC2)C(CO)(c1ccccc1)c1ccccc1` (stereo unspecified), the growth rescue is inactive: 24.7%.

As to `O=C(OCCN1CCCC1)C(O)(c1ccccc1)c1ccccc1`, the growth rescue is inactive: 0.272%.

As to `CC(C)Oc1ccc(C(=O)NCC2(N(C)C)CCCCC2)cc1`, the growth rescue is inactive: -9.47% and inactive: 0.296%.

As to `CN(C)c1cccc(C(=O)NCC2(N(C)C)CCCCC2)c1`, the growth rescue was inactive: 1.28%.

With `C=C(C)C#CC(O)(C(=O)OC1CCN(C)CC1)c1ccccc1` (stereo unspecified), the growth rescue was inactive: -18%.

For the compound `COc1ccc(Br)c(C(=O)NCC2(N3CCCCC3)CCCCC2)c1`, the growth rescue is inactive: -11.5%.

Consider `Cc1cccc(C(=O)NCC2(N(C)C)CCCCC2)c1`, for which the growth rescue is inactive: -6.07%.

For `COc1cc(C(=O)NCC2(N(C)C)CCCCC2)cc(OC)c1OC`, the growth rescue was inactive: -9%.

Turning to `CN1[C@@H]2CC[C@H]1CC(OC(=O)C(O)(c1ccccc1)c1ccccc1)C2` (stereo partly specified), the growth rescue was inactive: -7.23%.

For `O=C(NCC1(N2CCCCC2)CCCCC1)c1cc([N+](=O)[O-])ccc1Cl`, the growth rescue was inactive: -2.62%.

As to `Cc1ccc(C(=O)NCC2(N3CCCCC3)CCCCC2)cc1`, the growth rescue is inactive: -23.8%.

On to `CN(C)C1(CNC(=O)c2ccccc2F)CCCCC1`, for which the growth rescue is inactive: -12.8%.

In the case of `COc1cc(SC)ccc1C(=O)NCC1(N(C)C)CCCCC1`, the growth rescue is inactive: -8.85%.

Consider `CN(C)C1(CNC(=O)c2cccc(Cl)c2)CCCCC1`, for which the growth rescue is inactive: -8.23%.

Take `CCN(CC)CC(C)C(C)OC(=O)C(O)(c1ccccc1)c1ccccc1` (stereo unspecified): the growth rescue is inactive: -4.04%.

In the case of `CC(C)N1C(=O)CC2(CCN(CCOC(=O)C(O)(c3ccccc3)c3ccccc3)CC2)C1=O`, the growth rescue is inactive: 12.1%.

For the compound `CCCCOc1ccccc1C(=O)NCC1(N(C)C)CCCCC1`, the growth rescue is inactive: -20.3%.

`CN(C)c1ccc(C(=O)NCC2(N(C)C)CCCCC2)cc1`: the growth rescue was inactive: -5.35%.

In the case of `CN(C)C1CCCC1OC(=O)C(O)(c1ccccc1)c1ccccc1` (stereo unspecified), the growth rescue was inactive: -9.97%.

For `Cc1ccccc1C(=O)NCC1(N2CCCCC2)CCCCC1`, the growth rescue is inactive: 4.27%.

`CN(C)C1(CNC(=O)c2ccccc2[N+](=O)[O-])CCCCC1`: the growth rescue was inactive: -13.9%.

Consider `CCOc1cccc(C(=O)NCC2(N(C)C)CCCCC2)c1`, for which the growth rescue was inactive: -21.1%.

As to `COc1ccc(C(=O)NCC2(N(C)C)CCCCC2)cc1`, the growth rescue was inactive: 3.38%.

For the compound `O=C(NCC1(N2CCCCC2)CCCCC1)c1cccc(Br)c1`, the growth rescue is inactive: 6.73%.

Regarding `CCN1CCCC(OC(=O)C2(O)c3ccccc3C=Cc3ccccc32)C1` (stereo unspecified), the growth rescue is inactive: 0.362%.

On to `Cc1cc(C(=O)NCC2(N3CCCCC3)CCCCC2)ccc1[N+](=O)[O-]`, for which the growth rescue is inactive: -1.35%.

With `O=C(NCC1(N2CCCCC2)CCCCC1)c1cc(F)c(F)cc1Cl`, the growth rescue was inactive: -8.88%.

With `C=CCN1CCN(CCOC(=O)C(O)(c2ccccc2)c2ccccc2)CC1`, the growth rescue is inactive: 10.1%.
